Reference: PubChem BioAssay AID651957 (The Scripps Research Institute Molecular Screening Center, 2012)
Only a part is listed here, and it is no random draw. Activity calls are given as the source filed them.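 How the source made its calls: active means inhibition above the mean inhibition of all tested compounds plus 3 SD, set per campaign (cut at about 52% in these data); inactive means the rest.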

Amino acid sequences for entries named in this document (tags omitted).
UniProt Q15596, whole entry: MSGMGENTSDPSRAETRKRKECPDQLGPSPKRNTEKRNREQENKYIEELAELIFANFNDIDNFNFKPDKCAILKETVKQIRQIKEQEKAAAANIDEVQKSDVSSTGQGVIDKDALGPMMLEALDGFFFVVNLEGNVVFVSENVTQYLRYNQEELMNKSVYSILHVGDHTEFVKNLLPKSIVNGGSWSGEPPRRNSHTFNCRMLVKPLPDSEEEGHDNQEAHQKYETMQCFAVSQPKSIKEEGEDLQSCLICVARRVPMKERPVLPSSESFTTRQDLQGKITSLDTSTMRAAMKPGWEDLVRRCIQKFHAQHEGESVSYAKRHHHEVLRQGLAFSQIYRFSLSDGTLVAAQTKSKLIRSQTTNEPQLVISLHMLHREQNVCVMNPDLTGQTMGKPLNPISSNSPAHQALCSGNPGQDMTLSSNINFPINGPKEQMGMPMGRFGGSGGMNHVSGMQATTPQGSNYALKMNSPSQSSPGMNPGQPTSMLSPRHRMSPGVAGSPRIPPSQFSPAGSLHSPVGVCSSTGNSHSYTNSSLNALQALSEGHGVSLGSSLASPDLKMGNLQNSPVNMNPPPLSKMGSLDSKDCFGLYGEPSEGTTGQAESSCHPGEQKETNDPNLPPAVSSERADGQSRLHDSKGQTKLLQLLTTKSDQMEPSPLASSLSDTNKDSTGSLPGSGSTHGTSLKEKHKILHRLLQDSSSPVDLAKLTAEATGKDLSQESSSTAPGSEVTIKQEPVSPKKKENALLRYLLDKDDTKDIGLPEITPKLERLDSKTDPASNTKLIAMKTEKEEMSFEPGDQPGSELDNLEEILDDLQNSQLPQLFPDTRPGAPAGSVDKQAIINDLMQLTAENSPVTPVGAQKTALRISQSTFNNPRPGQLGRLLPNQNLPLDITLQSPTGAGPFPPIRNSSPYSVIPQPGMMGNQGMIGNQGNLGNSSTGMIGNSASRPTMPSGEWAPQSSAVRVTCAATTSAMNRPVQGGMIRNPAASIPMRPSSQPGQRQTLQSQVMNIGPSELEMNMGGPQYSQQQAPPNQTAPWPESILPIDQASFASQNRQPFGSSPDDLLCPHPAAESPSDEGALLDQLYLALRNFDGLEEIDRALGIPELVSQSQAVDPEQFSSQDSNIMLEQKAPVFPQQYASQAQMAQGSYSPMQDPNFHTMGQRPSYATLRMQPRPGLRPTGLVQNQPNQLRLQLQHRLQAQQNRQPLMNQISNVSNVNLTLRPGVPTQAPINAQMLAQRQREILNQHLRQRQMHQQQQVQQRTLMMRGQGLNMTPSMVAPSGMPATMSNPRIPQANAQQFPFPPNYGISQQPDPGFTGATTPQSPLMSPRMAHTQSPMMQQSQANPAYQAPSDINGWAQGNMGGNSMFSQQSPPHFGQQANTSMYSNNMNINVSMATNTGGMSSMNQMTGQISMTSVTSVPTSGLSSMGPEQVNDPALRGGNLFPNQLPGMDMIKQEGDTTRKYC

target: Nuclear receptor coactivator 2 (Homo sapiens) (UniProt Q15596); assay: decrease of SRC2 fusion reporter luminescence – cell-based, SRC2 inhibitor project, primary screen (AID 651957); settings: HEK293 GAL4-SRC2 luciferase reporter, at 9 µM, hits give high values;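 further: 0% = DMSO treated cells and 100% = cells given Gossypol at 36 µM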

| SMILES | inhibition |
| --- | --- |
| COc1ccccc1OP(C)(=O)Nc1cccc(Br)c1 (stereo unspecified) | inactive: -31.5% |
| Cc1cc(C)cc(OP(C)(=O)Nc2ccc(C)cc2C)c1 (stereo unspecified) | inactive: 11% |
| CCOC(=O)c1ccc(NP(C)(=O)Oc2cc(C)cc(C)c2)cc1 (stereo unspecified) | inactive: 15.3% |
| CC1=NCCc2c1[nH]c1ccccc21.O=[N+]([O-])c1cc([N+](=O)[O-])c(O)c([N+](=O)[O-])c1 | inactive: 7.43% |
| O=C(O)c1cccc(Nc2c([N+](=O)[O-])cc([N+](=O)[O-])cc2[N+](=O)[O-])c1 | inactive: 14.1% |
| CN1CCCCC1COC(=O)C1(O)c2ccccc2CCc2ccccc21 (stereo unspecified) | inactive: 7.61% |
| COc1ccccc1OP(C)(=O)Nc1c(C)cccc1C (stereo unspecified) | inactive: -6.18% |
| CP(=O)(Nc1ccc(SC(F)(F)F)cc1)Oc1ccccc1 (stereo unspecified) | inactive: 21.6% |
| CCCOc1ccc(NP(C)(=O)Oc2ccc(Cl)cc2)cc1 (stereo unspecified) | inactive: 25.4% |
| COc1ccc(-c2ccccn2)cc1.O=[N+]([O-])c1cc([N+](=O)[O-])c(O)c([N+](=O)[O-])c1 | inactive: -63.9% |
| O=[N+]([O-])c1cc([N+](=O)[O-])c(Nc2nnnn2CCO)c([N+](=O)[O-])c1 | inactive: -11.3% |
| CCOC(=O)C(CC)C1=NC(C)(C)Cc2ccccc21.O=[N+]([O-])c1cc([N+](=O)[O-])c(O)c([N+](=O)[O-])c1 (stereo unspecified) | inactive: -43.2% |
| O=[N+]([O-])c1cc([N+](=O)[O-])c(-c2cnn(-c3ccccc3)c2)c([N+](=O)[O-])c1 | inactive: 5.49% |
| Cc1nc2ccc3ccccc3c2s1.O=[N+]([O-])c1cc([N+](=O)[O-])c(O)c([N+](=O)[O-])c1 | inactive: -29.2% |
| O=[N+]([O-])c1cc([N+](=O)[O-])c(-n2nnc3ccccc32)c([N+](=O)[O-])c1 | inactive: 15.2% |
| CN(Cc1cccnc1)C(=O)COc1ccc(Cl)c(Cl)c1.O=[N+]([O-])c1cc([N+](=O)[O-])c(O)c([N+](=O)[O-])c1 | inactive: -40.6% |
| CCOP(C)(=S)SCC(=O)NC(C)C(=O)O (stereo unspecified) | inactive: -3.19% |
| O=[N+]([O-])c1cc([N+](=O)[O-])c(O)c([N+](=O)[O-])c1.c1ccc(Oc2ccncc2)cc1 | inactive: 22.4% |
| CCOC(=O)c1ccc(NP(C)(=O)Oc2ccc(OC)cc2)cc1 (stereo unspecified) | inactive: 3.08% |
| CP(=O)(Nc1ccccn1)Oc1ccc(Cl)cc1 (stereo unspecified) | inactive: -1.47% |
| CP(=O)(Nc1ccc(SC(F)(F)F)cc1)Oc1ccc(Cl)cc1 (stereo unspecified) | inactive: -0.12% |

| SMILES | inhibition |
| --- | --- |
| Cc1cccc(C)c1OP(C)(=O)Nc1ccc(SC(F)(F)F)cc1 (stereo unspecified) | inactive: -27.4% |
| CP(=O)(Oc1ccccc1)OC(c1ccccc1)C(F)(F)F (stereo unspecified) | inactive: 0.9% |
| CCc1ccc(OP(C)(=O)N2CCN(c3ccc([N+](=O)[O-])cc3)CC2)cc1 (stereo unspecified) | inactive: 14.9% |
| CP(=O)(NC(=O)Nc1ccccc1)Oc1ccccc1 (stereo unspecified) | inactive: 12.2% |
| Cc1cc(C)cc(OP(C)(=O)Nc2ccc(SC(F)(F)F)cc2)c1 (stereo unspecified) | inactive: -3.88% |
| CP(=S)(Nn1cnnc1)Oc1ccccc1 (stereo unspecified) | inactive: -2.55% |
| COc1ccccc1OP(C)(=O)Nc1ccccc1 (stereo unspecified) | inactive: -9.51% |
| CP(=O)(Nc1ccccc1Br)Oc1ccccc1 (stereo unspecified) | inactive: 20.2% |
| CCOC(=O)c1ccc(NP(C)(=O)Oc2ccccc2)cc1 (stereo unspecified) | inactive: -19.7% |
| COc1ccccc1OP(C)(=O)Nc1ccc(C)cc1 (stereo unspecified) | inactive: 2.63% |
| Cc1ccc(NP(C)(=O)Oc2ccccc2)c(C)c1 (stereo unspecified) | inactive: -0.72% |
| COc1ccccc1OP(C)(=O)Nc1cc(Cl)ccc1C (stereo unspecified) | inactive: -4.65% |
| COc1ccc(OP(C)(=O)Nc2cccc(F)c2)cc1 (stereo unspecified) | inactive: -15.9% |
| Cc1cc(C)cc(OP(C)(N)=O)c1 (stereo unspecified) | inactive: -25.2% |
| O=[N+]([O-])c1cc([N+](=O)[O-])c(Nc2cccnc2)c([N+](=O)[O-])c1 | inactive: 10.7% |
| CC(C)(C)c1ccc(OP(C)(=O)Nc2ccc(SC(F)(F)F)cc2)cc1 (stereo unspecified) | inactive: 7.47% |
| Cc1cccc(C)c1OP(C)(N)=O (stereo unspecified) | inactive: -1.48% |
| O=[N+]([O-])c1ccc2c(c1)C=Nc1ccccc1O2 | inactive: -2.11% |
| COc1ccccc1-c1ccccn1.O=[N+]([O-])c1cc([N+](=O)[O-])c(O)c([N+](=O)[O-])c1 | inactive: -12.5% |
| CCN(CC)CCCOC(=O)C(O)(c1ccccc1)c1ccccc1 | inactive: -17.6% |
